Results taken from patent US10072001B2, “Tank-binding kinase inhibitor compounds” (Gilead Sciences, Inc., priority 2014, dated 2018).

Protein sequences, listed by entry. Tags and fused reporters are not part of them. Lines headed by an entry give the natural chain unless they say otherwise; changes in a name come on top.
UniProt Q14164: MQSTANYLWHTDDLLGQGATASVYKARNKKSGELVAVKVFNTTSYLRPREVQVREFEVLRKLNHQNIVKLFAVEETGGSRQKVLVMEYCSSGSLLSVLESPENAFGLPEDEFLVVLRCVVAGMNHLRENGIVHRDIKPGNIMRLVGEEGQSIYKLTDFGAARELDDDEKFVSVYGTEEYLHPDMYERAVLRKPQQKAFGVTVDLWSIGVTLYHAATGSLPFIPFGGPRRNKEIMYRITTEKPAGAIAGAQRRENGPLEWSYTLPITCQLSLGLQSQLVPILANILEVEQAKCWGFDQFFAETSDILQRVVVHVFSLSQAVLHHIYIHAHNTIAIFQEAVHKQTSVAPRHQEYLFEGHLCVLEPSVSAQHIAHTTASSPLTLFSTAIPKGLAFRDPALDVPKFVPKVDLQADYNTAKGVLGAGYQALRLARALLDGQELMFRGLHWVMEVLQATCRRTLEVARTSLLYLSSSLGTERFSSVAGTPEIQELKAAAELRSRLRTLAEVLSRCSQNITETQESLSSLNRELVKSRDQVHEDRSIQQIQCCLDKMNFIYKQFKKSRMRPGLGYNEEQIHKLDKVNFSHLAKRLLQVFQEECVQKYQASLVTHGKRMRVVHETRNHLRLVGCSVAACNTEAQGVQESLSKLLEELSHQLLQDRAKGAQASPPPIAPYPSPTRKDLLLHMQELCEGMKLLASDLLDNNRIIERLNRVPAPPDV
UniProt Q9UHD2: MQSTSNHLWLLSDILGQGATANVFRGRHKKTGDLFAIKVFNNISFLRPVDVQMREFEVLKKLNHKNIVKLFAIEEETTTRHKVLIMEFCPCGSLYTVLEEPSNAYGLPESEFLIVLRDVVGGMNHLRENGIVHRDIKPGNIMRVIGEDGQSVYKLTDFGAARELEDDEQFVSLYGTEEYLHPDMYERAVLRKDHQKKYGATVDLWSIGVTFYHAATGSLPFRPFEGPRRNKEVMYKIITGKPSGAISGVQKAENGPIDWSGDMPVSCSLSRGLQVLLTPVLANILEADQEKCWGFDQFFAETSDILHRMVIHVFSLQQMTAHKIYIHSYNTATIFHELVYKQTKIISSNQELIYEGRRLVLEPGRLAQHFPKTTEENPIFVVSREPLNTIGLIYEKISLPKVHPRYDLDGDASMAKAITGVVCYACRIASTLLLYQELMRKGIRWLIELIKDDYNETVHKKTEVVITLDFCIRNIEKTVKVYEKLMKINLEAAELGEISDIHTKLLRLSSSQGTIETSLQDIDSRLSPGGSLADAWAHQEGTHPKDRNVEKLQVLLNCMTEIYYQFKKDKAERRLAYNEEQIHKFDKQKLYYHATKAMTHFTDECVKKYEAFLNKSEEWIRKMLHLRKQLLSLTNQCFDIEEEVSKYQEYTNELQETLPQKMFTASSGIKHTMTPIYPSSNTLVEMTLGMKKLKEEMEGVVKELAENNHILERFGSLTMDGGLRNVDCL

Key:
IKKε = IKKε (Homo sapiens (Human), UniProt Q14164); test: TR-FRET kinase assay, IKKε; assay type: biochemical; settings: full length recombinant IKKε 0.3 nM, 2x Km ATP, 1 μM peptide, 240 min at 25° C.; geometric mean of minimum four determinations
Excerpt: Biological Assay for TBK1 and IKKs:

TBK1 = TBK1 (Homo sapiens (Human), UniProt Q9UHD2); test: TR-FRET kinase assay, TBK1; settings: read-out: TBK1-IC50; full length recombinant TBK1 2.5 nM, 2x Km ATP, 1 μM peptide, 240 min at 25° C.; geometric mean of minimum four determinations

IC50 (IKKε) [nM] | IC50 (TBK1) [nM] | Compound
16.1 | – | N#Cc1cc(-c2ccnc3[nH]c(-c4cncc(N)n4)cc23)ccc1OC1CCOCC1 [Example 73, 5-(2-(6-aminopyrazin-2-yl)-1H-pyrrolo[2,3-b]pyridin-4-yl)-2-((tetrahydro-2H-pyran-4-yl)oxy)benzonitrile]
47 | 32.7 | N#Cc1cc(-c2ncnc3[nH]c(-c4cncc(N)n4)cc23)ccc1OC1CCOCC1 [Example 269, 5-(6-(6-aminopyrazin-2-yl)-7H-pyrrolo[2,3-d]pyrimidin-4-yl)-2-((tetrahydro-2H-pyran-4-yl)oxy)benzonitrile]
– | 1.46 | N#Cc1cc(-c2ncnc3[nH]c(C4=CCC5(CC4)OCCO5)cc23)ccc1OC1CCN(C(=O)CO)CC1 [Example 175, 5-(6-(1,4-dioxaspiro[4.5]dec-7-en-8-yl)-7H-pyrrolo[2,3-d]pyrimidin-4-yl)-2-((1-(2-hydroxyacetyl)piperidin-4-yl)oxy)benzonitrile]
2.61 | – | N#Cc1cc(-c2ncnc3[nH]c(-c4ccc(N5CCN(CC(F)F)CC5)cc4)cc23)ccc1OC1CCN(C(=O)CO)CC1 [Example 264, 5-(6-(4-(4-(2,2-difluoroethyl)piperazin-1-yl)phenyl)-7H-pyrrolo[2,3-d]pyrimidin-4-yl)-2-((1-(2-hydroxyacetyl)piperidin-4-yl)oxy)benzonitrile]

More lines, now with the values behind:

Compound | IC50 (IKKε) [nM] | IC50 (TBK1) [nM]
N#Cc1cc(-c2ccnc3[nH]c(-c4ccc(CN5CCOCC5)cc4)cc23)ccc1OC1CCOCC1 [Example 2, 5-(2-(4-(morpholinomethyl)phenyl)-1H-pyrrolo[2,3-b]pyridin-4-yl)-2-((tetrahydro-2H-pyran-4-yl)oxy)benzonitrile] | 1.5 | 1.5
N#Cc1cc(-c2ccnc3[nH]c(-c4ccc(C5(C#N)CC5)cc4)cc23)ccc1OC1CCOCC1 [Example 67, 5-(2-(4-(1-cyanocyclopropyl)phenyl)-1H-pyrrolo[2,3-b]pyridin-4-yl)-2-((tetrahydro-2H-pyran-4-yl)oxy)benzonitrile] | > 1000 | 5.56
N#Cc1cc(-c2ccnc3[nH]c(C#CC4CCOCC4)cc23)ccc1OC1CCOCC1 [Example 35, 5-(2-((tetrahydro-2H-pyran-4-yl)ethynyl)-1H-pyrrolo[2,3-b]pyridin-4-yl)-2-((tetrahydro-2H-pyran-4-yl)oxy)benzonitrile] | 139 | –
COc1ccc(-c2cc3c(-c4ccc(OC5CCOCC5)c(C#N)c4)ccnc3[nH]2)cc1OC [Example 1, 5-(2-(3,4-dimethoxyphenyl)-1H-pyrrolo[2,3-b]pyridin-4-yl)-2-((tetrahydro-2H-pyran-4-yl)oxy)benzonitrile] | 41 | –
N#CCC(=O)N1CCN(c2ccc(-c3cc4c(-c5ccc(OC6CCOCC6)c(C#N)c5)ccnc4[nH]3)cc2)CC1 [Example 57, 5-(2-(4-(4-(2-cyanoacetyl)piperazin-1-yl)phenyl)-1H-pyrrolo[2,3-b]pyridin-4-yl)-2-((tetrahydro-2H-pyran-4-yl)oxy)benzonitrile] | – | 1.46
N#Cc1cc(-c2ccnc3[nH]c(-c4ccc(N5CC6(COC6)C5)cc4)cc23)ccc1OC1CCOCC1 [Example 46, 5-(2-(4-(2-oxa-6-azaspiro[3.3]heptan-6-yl)phenyl)-1H-pyrrolo[2,3-b]pyridin-4-yl)-2-((tetrahydro-2H-pyran-4-yl)oxy)benzonitrile] | – | 4.49
